Data: article PMC11997059, “Drugit: crowd-sourcing molecular design of non-peptidic VHL binders” (Nature Communications, 2025)
In brackets after ≈: the same amount, converted by molar mass.

Test: NMR detected solubility in NMR buffer
Settings: 500 µM target; 20 mM TRIS, 100 mM NaCl, pH 7.5 in D2O; 1H NMR vs maleic acid

Structure (SMILES) | Solubility in NMR buffer
C=C(C)c1c[nH]c(=O)c(NCc2ccc(-c3scnc3C)cc2)c1 | 20.0 µM (≈ 6.75 µg/mL)
Cc1ncsc1-c1ccc(CNc2cc(Br)c[nH]c2=O)cc1 | 30.0 µM (≈ 11.3 µg/mL)
Cc1ncsc1-c1ccc(CNC(=O)[C@H]2C[C@@H](O)CN(c3ccccn3)C2)cc1 | 90.0 µM (≈ 36.8 µg/mL)
Cc1ncsc1-c1ccc(CNc2cc(-c3ccccc3)c[nH]c2=O)cc1 | 20.0 µM (≈ 7.47 µg/mL)
Cc1ncsc1-c1ccc(CNC(=O)[C@@H]2C[C@H](O)CN(c3ccccn3)C2)cc1 | 140.0 µM (≈ 57.2 µg/mL)
